The values below come from ChEMBL document CHEMBL1156911 (Bioorg Med Chem, 2010).

Protein sequences, listed by entry. Tags and fused reporters are not part of them. Lines headed by an entry give the natural chain unless they say otherwise; changes in a name come on top.
UniProt P28845: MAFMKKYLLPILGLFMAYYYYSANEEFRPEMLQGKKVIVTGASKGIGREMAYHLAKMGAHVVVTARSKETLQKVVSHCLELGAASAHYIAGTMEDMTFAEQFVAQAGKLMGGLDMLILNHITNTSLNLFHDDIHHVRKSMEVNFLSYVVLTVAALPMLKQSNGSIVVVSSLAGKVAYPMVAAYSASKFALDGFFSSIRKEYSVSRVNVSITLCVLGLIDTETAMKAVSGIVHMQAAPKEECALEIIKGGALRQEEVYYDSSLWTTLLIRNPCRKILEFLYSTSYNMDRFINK

For this test, the target named is 11-beta-hydroxysteroid dehydrogenase 1 (Homo sapiens, UniProt P28845). The settings on record: HEK293, 2 uM.

Active and inactive are the calls of the source. The calls are words filed in the database; no cut-off is given here.

Regarding `COC(=O)[C@]12CC[C@@H](C)[C@H](C)[C@H]1C1=CC[C@@H]3[C@@]4(C)C[C@@H](O)[C@@H](O)C(C)(C)[C@@H]4CC[C@@]3(C)[C@]1(C)CC2`, the inhibition entry was “Active”.
